## scFv variants of Ab-14 (light chain) against a SARS-CoV-2 spike peptide

From the AlphaSeq antibody data of Li et al. 2023 (doi:10.1038/s41467-023-39022-2), copy in the FLAb collection.

Target peptide (SARS-CoV-2 spike, HR2 region): PDVDLGDISGINAS

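The starting antibody came from a phage panning campaign against this peptide. This is the validation round: designs drawn from the data on random variants, tested in the same kind of assay. Their group label is 14L_GP_Gibbs (GP: Gaussian process model; Gibbs: Gibbs sampling; a sequence that several methods proposed may carry one label only). The scFvs were displayed on barcoded MATa yeast, the peptide on MATalpha yeast. Mating (16 h, 30 °C) was followed by selection of diploids and sequencing of their barcodes. The ratio of observed to expected reads was calibrated, replicate by replicate, on BCL2-family standards whose Kd was known from biolayer interferometry. There are six technical replicates.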

Parent: Ab-14, a human scFv built as VH, the linker GGGGSGGGGSGGGGS, VL. Only the CDRs of the light chain vary.
VH: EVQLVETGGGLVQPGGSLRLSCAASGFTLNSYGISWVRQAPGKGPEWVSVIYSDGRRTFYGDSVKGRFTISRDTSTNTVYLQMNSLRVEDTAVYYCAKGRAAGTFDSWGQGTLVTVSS
VL: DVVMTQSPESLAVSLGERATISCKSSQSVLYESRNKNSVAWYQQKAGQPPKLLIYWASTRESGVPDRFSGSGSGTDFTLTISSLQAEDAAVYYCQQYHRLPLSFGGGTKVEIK

Each variant is given by its three light chain CDRs, as the data file delimits them; those of the parent are KSSQSVLYESRNKNSVA, WASTRES, QQYHRLPLS. Numbers give log10(Kd / nM), so 0 is 1 nM and 3 is 1 µM. Smaller is tighter. A mean of the replicates is given; it leaves out those without a signal.

CDR-L1	CDR-L2	CDR-L3	log10 Kd (nM) by replicate	log10 Kd (nM), mean	empty controls
KLEQGDLMESRNKNSVA	HASERES	QQYHRLPLS	0.02 / -0.40 / -0.20 / -0.36 / -0.52 / -0.36	-0.30	0/18
KLMQSDLYESRMKNAVA	DASTRME	QQYHRLPLS	0.12 / 0.08 / -0.05 / -0.27 / -0.24 / 0.10	-0.04	0/18
KFPQSVGYQSRNKNSVA	DASTRES	QQYERLPLS	-0.20 / -0.37 / -0.24 / -0.27 / -0.23 / 0.10	-0.20	1/18 (2.18)
KLMYLVLYESRNKNSVA	GASTRLQ	QQYHRLPLS	1.77 / 0.46 / 0.18 / 1.38 / 0.83 / 1.29	0.98	0/18
KLSQSWLYEDRPKNSVA	NASTRMQ	QQYHRLPLS	-0.13 / 0.03 / -0.17 / -0.11 / 0.15 / 0.16	-0.01	1/18 (2.92)
KMSQEVPLESRNDNSVA	MASTRMM	QQYHRLPLS	0.98 / 0.80 / 1.06 / 0.96 / 0.93 / 0.73	0.91	4/18 (4.00)
KVSIEDDGGDRNKNSVA	HASLRES	QQYHRLPLS	0.05 / 0.00 / -0.02 / -0.11 / -0.22 / 0.06	-0.04	2/18 (3.90)
KLMEQALYESRNKNSVA	QASTREM	QQYHRLPLS	0.79 / 0.48 / 0.16 / 0.60 / 0.56 / 0.60	0.53	0/18
KLSQSNGYEERNKNNVA	SASQREM	QQYHRLPLS	-0.31 / -0.43 / -0.63 / -0.52 / -0.51 / -0.38	-0.46	1/18 (4.39)
KYPQSEGYESRNQNSVA	MASQREE	QQYHRLPLS	0.16 / 0.04 / 0.07 / -0.21 / -0.11 / 0.07	0.00	0/18
KVSQSTLYESRMKNSVA	NASVRSS	QQYHRLPLS	0.32 / 0.11 / 0.15 / 0.06 / 0.31 / 0.38	0.22	0/18
KLDQSGLYGSRNKNSVA	EASERES	QQYHRLPLY	0.26 / 0.08 / -0.18 / 0.18 / -0.01 / 0.23	0.09	2/18 (3.21)
KLQMQVEMSSRNKNSVA	QANTRES	QQYHRLPLS	0.00 / 0.01 / -0.20 / -0.15 / -0.11 / 0.19	-0.04	1/18 (4.90)
KISQSVLYESRNWNAVA	EASTRES	QDYHRLPLS	0.32 / 0.51 / 0.23 / 0.19 / 0.18 / 0.35	0.30	1/18 (2.50)
KWSQSVLYEQRDKNSVA	NASTRCQ	QQYHRLPLS	0.26 / 0.41 / 0.16 / 0.22 / 0.53 / 0.21	0.30	2/18 (2.68)
KLSQSQLYESRNTKSVA	NASTRVS	QQYHRLPLS	0.21 / 0.19 / -0.03 / -0.03 / 0.13 / 0.24	0.12	1/18 (3.37)
KFSQEMLYESRNKNSVA	NASCRES	QQYHRLPLS	0.18 / 0.04 / -0.15 / -0.18 / -0.09 / -0.05	-0.04	1/18 (2.18)
KLSQMPLYESRNANSVA	NASTREE	QQYHRLPLS	0.38 / 0.67 / 0.03 / 0.11 / 0.44 / 0.28	0.32	0/18
KLRLSKEYESRQKNSVA	NASTREV	QQYHRLPLS	-0.08 / -0.31 / -0.29 / -0.55 / -0.48 / -0.10	-0.30	0/18
KVYMSVDYEDRNKNSVA	HASVRES	QQYHRLPLS	-0.10 / -0.31 / -0.02 / -0.29 / -0.38 / -0.11	-0.20	0/18
KAQQSWPYESRNKWSVA	NASTREK	QQYHRLPLS	0.21 / 0.09 / 0.12 / 0.19 / 0.22 / 0.26	0.18	1/18 (3.26)
KFEQLWGPEQRNKNSVA	NASLRED	QQYHRLPLS	0.63 / 0.29 / 0.43 / 0.14 / 0.36 / 0.62	0.41	1/18 (3.30)
KQSQSFLYESRNSNSVA	NASQREQ	QQYHRLPLM	0.01 / 0.05 / 0.32 / -0.15 / 0.06 / 0.11	0.07	2/18 (2.35)
KLEQSGGYEQRNSNSVA	EASTRED	QQYHRLPLS	0.34 / 0.21 / 0.07 / -0.21 / -0.04 / -0.05	0.06	0/18
KFSQAYMYEQRNKNSVA	NASQRES	QQYHRLPLS	-0.27 / -0.21 / -0.19 / -0.35 / -0.24 / -0.12	-0.23	1/18 (3.01)
KMQNSNGYESRNKNSVA	QASTRMS	QQYHRLPLS	0.03 / -0.20 / -0.13 / -0.33 / -0.15 / 0.00	-0.13	3/18 (3.90)
KLQCSEEYESRQFNSVA	EASTRNL	QQYHRLPLS	0.25 / 0.46 / 0.42 / 0.22 / 0.35 / 0.62	0.39	1/18 (2.46)
KLSYSVEYQDRNKNSVA	QASQRES	QQYHRLPLS	0.01 / -0.31 / -0.04 / -0.34 / -0.37 / -0.15	-0.20	1/18 (3.67)
KVSQSTLYEDRNKNSVA	NASVRES	QQYHRLPLS	-0.13 / -0.07 / -0.02 / -0.26 / -0.37 / -0.13	-0.16	0/18
LVDQSQLYEQRNKNSVA	SASLRES	QQYHRLPLS	0.27 / 0.04 / 0.05 / -0.06 / 0.13 / 0.34	0.13	0/18
KVVQSHDYESRNKQSVA	DASTRCS	QQYHRLPLS	0.20 / 0.03 / 0.06 / 0.02 / 0.00 / -0.04	0.04	1/18 (2.49)

The authors averaged sequences with at least three values out of six and counted those with two or fewer as poor binders. Three control strains display no target. For all light chain designs, 4% of the pairings with them gave a signal, with a median of 2.64 and one signal in twenty below 1.59, so weak values seen in few replicates may be background. For each scFv, signals with the empty controls are counted beside the result, with their mean in brackets. A sequence measured in both rounds can read differently, since the two assays cover different ranges.